scFv variants of Ab-95 (light chain) against a SARS-CoV-2 spike peptide

Values reported by Engelhart et al. 2022, doi:10.1038/s41597-022-01779-4 (FLAb copy).

All variants were tested on one target, the spike HR2 peptide PDVDLGDISGINAS (SARS-CoV-2).

Ab-95 is the parent antibody, in scFv form: VH, then three GGGGS repeats, then VL. The heavy chain is unchanged in all variants.
VH: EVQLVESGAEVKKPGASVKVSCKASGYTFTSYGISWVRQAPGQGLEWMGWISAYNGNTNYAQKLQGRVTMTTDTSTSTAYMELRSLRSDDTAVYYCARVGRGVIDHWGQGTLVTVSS
VL: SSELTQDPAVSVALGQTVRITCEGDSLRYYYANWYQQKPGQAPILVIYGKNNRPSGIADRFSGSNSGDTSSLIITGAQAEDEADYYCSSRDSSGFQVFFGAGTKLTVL

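Library AAYL52 holds single substitutions and randomly drawn double and triple substitutions in the CDRs. Affinity was read by AlphaSeq, a pooled yeast mating assay with surface-displayed partners. Binding brings cells together so that they mate, and sequencing counts the barcode pairs among the diploids. Each replicate has its own calibration line, from reference interactions of the BCL2 family. Mating was done three times.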

Each variant is given by its three light chain CDRs, as the data file delimits them; those of the parent are EGDSLRYYYAN, GKNNRPS, SSRDSSGFQVF.
Numbers give log10(Kd / nM), so 0 is 1 nM and 3 is 1 µM. Smaller is tighter.
The mean shown is taken over the replicates in which the pair was detected.
A pair that was not seen in that replicate is written "nd"; this usually means weak binding, but a binder can also be missed.
Nonspecific signal, from three strains lacking the peptide, appeared in 28% of pairings of library AAYL52, centred on 3.91 (5% of these signals below 2.90); values are not corrected for it.
Parent in this assay: reference entry 2.31, copy in this library 2.25.

log10 Kd (nM) by replicate,mean log10 Kd (nM),CDR-L1,CDR-L2,CDR-L3
2.65 / 2.72 / 2.29,2.55,EGDSLRIQYAN,GKNNRFS,SSRDSSGFQVF
2.89 / 2.83 / 3.17,2.96,EGDSLRYWYAN,GKNNRPS,SRRDSSNFQVF
2.09 / 2.91 / 2.22,2.40,EGDSLSYYYAN,GKNNRPS,SCRDSSGFQVP
2.82 / 3.24 / 2.42,2.82,EGDSLRYYDAN,GKNNDPS,SSRDSSGFQQF
nd / 4.05 / nd,4.05,EGDKKRYYYAN,GKNNRPS,SSRDSSGFQVT
2.75 / 2.10 / 2.15,2.33,EGYSLRYVYAN,GQNNRPS,SSRDSSGFQVF
nd / 5.41 / nd,5.41,EGDSLRYYYAN,GKNNRPS,SSRFMSGFQVK
4.96 / 3.72 / nd,4.34,EGDSLRYYYDN,GKNNRPS,SSRPSSAFQVF
4.31 / nd / 3.00,3.66,EGDSLRYYYAN,GKNNCPS,LSRDISGFQVF
2.37 / 2.54 / 2.18,2.36,EGDSLRYYYAN,GKNNRPS,SSRDSWGMKVF
3.48 / nd / nd,3.48,EGDSLRYYYAN,GLNNRPS,SIRDSSGFQSF
2.96 / nd / 2.60,2.78,EGDNLRYYYAN,GHNNRPS,SSRDSSGFQVR
nd / 5.38 / nd,5.38,EGDSLRYYYAN,GKNNRHS,SHRDSSGFGVF
2.86 / 2.63 / 2.61,2.70,EGDSLRYYYAN,GKNNRSS,SSRQSSGFQVF
nd / 4.46 / 3.29,3.88,EGDSPRYYYAN,GKNNRKS,SSRDSSGFAVF
3.16 / 2.86 / 3.44,3.15,EGDSGRYYYAN,GKNCRPS,SSRDSSGMQVF
4.00 / 2.92 / 2.48,3.13,AGDSVRYYYAN,GKNDRPS,SSRDSSGFQVF
2.74 / 3.15 / 2.69,2.86,EGDSLRYYYAN,GKNNRPS,SSRENSGLQVF
3.92 / nd / nd,3.92,EGDSFRYYYAN,GKNRRPS,SQRDSSGFQVF
3.85 / nd / nd,3.85,EGDSLRYYYAN,EKNNIPS,SSSDSSGFQVF
4.79 / nd / nd,4.79,EGDSLRYYYAN,GKNNRWS,SLRDSSGFKVF
nd / nd / nd,nd,EGDSLRYYYAN,GKNIRPS,NSRESSGFQVF
2.71 / 2.73 / 3.18,2.88,EGDSLRYYEAN,GKNNRPS,SSRDSNRFQVF
nd / nd / nd,nd,EGDSLRLYYAN,HKNNRTS,SSRDSSGFQVF
2.91 / 2.43 / 2.73,2.69,EGDSLRYYYAN,GHNNRES,SSRDSSGFQVF
2.52 / 2.39 / 1.99,2.30,HDDSLRNYYAN,GKNNRPS,SSRDSSGFQVF
nd / nd / nd,nd,EGDSRRYYYAN,GKNNRTS,SSRYSSGFQVF
3.81 / 4.35 / 2.96,3.71,EEDSLRYFYAN,GKNNRPS,SSRDSSGFQVM
2.36 / 3.29 / 3.71,3.12,TGDSLRYYYAN,GKNNRPS,SPRDFSGFQVF
2.80 / 2.88 / 2.77,2.81,EGDSLRYYYAN,GKNNRVS,SSRDSSGFQSC
2.65 / 2.59 / 2.60,2.62,AGDSLRYIYAN,GKNNRPS,SSRDSSGFQPF
nd / 2.79 / nd,2.79,EGDSLRYYYAE,GKNNRPS,SSRDSSQFQVF
3.67 / 3.15 / nd,3.41,GGDSLRYYYAN,GKNNRPS,SSRDCSGFDVF
nd / nd / nd,nd,EGDSVRYYYEN,GKNNRPS,SSRDSSGFQKF
nd / 3.85 / 4.40,4.13,LNDSLRYYYAN,GKNNRPS,SSRDSSGMQVF
nd / nd / nd,nd,EGDSLRYYYAN,GKYNRPS,SSRISSGLQVF
3.27 / 3.50 / nd,3.38,VGDMLRYYYAN,GKNNRPS,SSRDCSGFQVF
nd / 3.64 / nd,3.64,EGDSLRYYYPN,GKNNRPY,SSRDSSLFQVF
2.21 / 2.18 / 1.82,2.07,EGDSLRYYYAN,GKNNRPS,SSRDFWGFQVH
3.52 / 2.80 / 4.03,3.45,EGDSLRYYYAN,GKNNRWS,KSRDSSGFQVF

Excerpt, the first 3 entries:

CDR-L1,CDR-L2,CDR-L3,log10 Kd (nM) by replicate,mean log10 Kd (nM)
EGDSLRIQYAN,GKNNRFS,SSRDSSGFQVF,2.65 / 2.72 / 2.29,2.55
EGDSLRYWYAN,GKNNRPS,SRRDSSNFQVF,2.89 / 2.83 / 3.17,2.96
EGDSLSYYYAN,GKNNRPS,SCRDSSGFQVP,2.09 / 2.91 / 2.22,2.40